Laboratory results as given in paper PMC4332148 (Molecular Systems Biology, 2015).

Molecular target: T1, standard 20S proteasome (human (endogenous in HEK cells), UniProt P60900 1-246; P25787 1-234; P25789 1-261; O14818 1-248; P28066 1-241; P25786 …)
T1 construct: 20S proteasome subunit α1; 20S proteasome subunit α2; 20S proteasome subunit α3; 20S proteasome subunit α4; 20S proteasome subunit α5; 20S proteasome subunit α6; 20S proteasome subunit α7; 20S proteasome standard catalytic subunit β1; 20S proteasome standard catalytic subunit β2; 20S proteasome subunit β3; 20S proteasome subunit β4; 20S proteasome standard catalytic subunit β5; 20S proteasome …
Experiment: affinity purification with mass spectrometry; proteasomes affinity-purified (MCP21) from formaldehyde cross-linked HEK EBNA cells, untransfected (sP20S) or transfected with β5i, β1i and β2i (iP20S), with β5i alone or with β1i and β5i; nano-LC-MS/MS, TOP3 label-free; regulator PAI normalized by the PAI of the ncP20S, n = 4
Conditions: partners not purified

B1: PI31 (natural protein, human (endogenous in human cell lines), UniProt Q92530 1-271, looked up)
chain: MAGLEVLFASAAPAITCRQDALVCFLHWEVVTHGYFGLGVGDQPGPNDKKSELLPAGWNNNKDLYVLRYEYKDGSRKLLVKAITVESSMILNVLEYGSQQVADLTLNLDDYIDAEHLGDFHRTYKNSEELRSRIVSGIITPIHEQWEKANVSSPHREFPPATAREVDPLRIPPHHPHTSRQPPWCDPLGPFVVGGEDLDPFGPRRGGMIVDPLRSGFPRALIDPSSGLPNRLPPGAVPPGARFDPFGPIGTSPPGPNPDHLPPPGYDDMYL
notes: also called PI31 proteasome regulator; source: endogenous, lysates of formaldehyde cross-linked human cell lines (the nine lines, HEK EBNA, HeLa with IFN-γ)
- fold of the relative abundance in the immunoprecipitate, against iP20S: > 8 fold
